The values that follow come from US6475746B1, “Method of obtaining a composition comprising a 5-HT1D selective compound” (Synaptic Pharmaceutical Corporation, priority 1990, dated 2002).

The chains behind the UniProt entries cited, without tags or fusion partners. Where a name states a change or a piece, a line headed by the entry shows the natural chain unless it says otherwise.
UniProt P28221: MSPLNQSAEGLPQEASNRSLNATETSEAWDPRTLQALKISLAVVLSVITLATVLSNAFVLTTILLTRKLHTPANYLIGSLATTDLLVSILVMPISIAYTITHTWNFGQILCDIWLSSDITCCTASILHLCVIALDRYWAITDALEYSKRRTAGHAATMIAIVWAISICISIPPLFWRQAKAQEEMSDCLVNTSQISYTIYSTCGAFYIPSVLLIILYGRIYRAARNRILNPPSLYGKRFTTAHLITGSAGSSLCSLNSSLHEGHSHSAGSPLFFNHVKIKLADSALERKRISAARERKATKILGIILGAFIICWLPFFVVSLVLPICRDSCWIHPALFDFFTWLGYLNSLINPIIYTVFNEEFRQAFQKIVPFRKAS
UniProt P28564, whole entry: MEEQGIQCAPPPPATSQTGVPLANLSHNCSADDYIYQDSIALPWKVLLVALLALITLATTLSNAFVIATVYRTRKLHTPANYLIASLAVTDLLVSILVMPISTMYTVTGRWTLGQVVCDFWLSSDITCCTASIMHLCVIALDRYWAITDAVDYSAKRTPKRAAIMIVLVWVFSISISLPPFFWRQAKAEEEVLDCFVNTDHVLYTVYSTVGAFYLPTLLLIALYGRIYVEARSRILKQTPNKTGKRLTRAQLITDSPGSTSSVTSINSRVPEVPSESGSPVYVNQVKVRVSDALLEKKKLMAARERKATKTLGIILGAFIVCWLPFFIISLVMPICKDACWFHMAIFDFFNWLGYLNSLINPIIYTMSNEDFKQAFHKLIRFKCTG
UniProt P28222, whole entry: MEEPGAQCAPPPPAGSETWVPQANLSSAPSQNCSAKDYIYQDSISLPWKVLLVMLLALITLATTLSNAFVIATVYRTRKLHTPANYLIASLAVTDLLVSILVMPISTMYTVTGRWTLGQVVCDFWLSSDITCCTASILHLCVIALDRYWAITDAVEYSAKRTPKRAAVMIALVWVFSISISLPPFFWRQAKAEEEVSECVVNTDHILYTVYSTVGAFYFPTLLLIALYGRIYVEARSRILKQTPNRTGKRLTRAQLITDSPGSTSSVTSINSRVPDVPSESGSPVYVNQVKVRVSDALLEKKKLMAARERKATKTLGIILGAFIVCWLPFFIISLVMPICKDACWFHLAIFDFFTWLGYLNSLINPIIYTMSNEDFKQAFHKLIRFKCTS

One assay concerns the target Cloned Human 5-HT1D-1 (Homo sapiens, UniProt P28221). Briefly: [3H]5-HT binding to cloned human 5-HT1D-1 (gene 8-30-84) in transfected cell membranes. To be noted: read-out: Estimated equilibrium dissociation constants (Ki values); [3H]5-HT displacement; membranes of LM (tk−) cells stably transfected; Cheng-Prusoff.
Assay [1] deals with T1, cloned rat 5-HT1B receptor (Rattus norvegicus, UniProt P28564).
T1 construct: expressed in transfected cells; host or cells: Cos-7 cells, transient; membrane fraction
To be noted: Cos-7 membranes; read-out: equilibrium dissociation constant for [3H]5-HT binding.

The target in a further assay is Cloned Human 5-HT1D-2 (Homo sapiens, UniProt P28222). Briefly: [3H]5-HT binding to cloned human 5-HT1D-2 (gene 11) in transfected cell membranes.

Like-named read-outs stand apart in the source and are kept apart here.

What is called Ki is a dissociation constant, usually derived from enzyme kinetics or from competition with a known ligand.

For Corynanthine, the inhibition constant Ki on Cloned Human 5-HT1D-1 was above 10 µM.

For ^3H-5-HT, the Kd amounted to 18.4 nM in assay [1]; 2.3 nM at Cloned Human 5-HT1D-2 (read-out: Kd of radioligand, Ltk- cells transfected with gene 11); 3 nM on Cloned Human 5-HT1D-2 (read-out: affinity of radioligand binding, transiently transfected Cos-7 cells, peptide 11).
